From patent US8846698B2, “Pyrrolo[2,3-d]pyrimidine tropomysin-related kinase inhibitors” (Pfizer Limited, priority 2011, dated 2014)

Protein sequences, listed by entry. Tags and fused reporters are not part of them. Residues count along the entry.
UniProt P04629, 441-796: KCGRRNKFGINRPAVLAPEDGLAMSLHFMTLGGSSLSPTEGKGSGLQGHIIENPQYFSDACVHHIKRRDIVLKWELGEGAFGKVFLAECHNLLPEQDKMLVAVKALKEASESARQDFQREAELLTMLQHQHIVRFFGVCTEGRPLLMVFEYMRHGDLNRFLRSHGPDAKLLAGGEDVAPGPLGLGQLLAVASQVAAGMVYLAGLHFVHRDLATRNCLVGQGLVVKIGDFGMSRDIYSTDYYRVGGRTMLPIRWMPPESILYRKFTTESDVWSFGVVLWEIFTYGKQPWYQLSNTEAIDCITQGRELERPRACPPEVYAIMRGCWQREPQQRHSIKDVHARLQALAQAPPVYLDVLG

Target: TRKA (Homo sapiens (Human), UniProt P04629)
Assay: Isolated TRK enzyme assay (HTRF KinEASE-TK), TRKA
Assay type: biochemical

Row | Compound | IC50 [µM]
1 | CC(C(N)=O)n1cc(C(=O)c2cncc(NC(=O)Cc3ccc(Cl)cc3)c2)c2cncnc21 (racemic) [Example 229, 2-{5-[(5-{[(4-Chlorophenyl)acetyl]amino}pyridin-3-yl)carbonyl]-7H-pyrrolo[2,3-d]pyrimidin-7-yl}propanamide] | 0.138
2 | CC(C)n1cc(C(=O)c2cncc(NC(=O)Cc3ccc4cn[nH]c4c3)c2)c2cncnc21 [Example 99, 2-(1H-indazol-6-yl)-N-{5-[(7-isopropyl-7H-pyrrolo[2,3-d]pyrimidin-5-yl)carbonyl]pyridin-3-yl}acetamide] | 0.0195
